Literature values as cited in paper PMC3953223 (Biochemistry, 2013).

Molecular target: PfENR
Conditions: read-out: overall inhibition constant; cited from earlier work

SMILES: Oc1cc(Cl)ccc1Oc1ccc(Cl)cc1Cl [Triclosan, triclosan]
- Ki: 0.096 nM
